Here are results for two substances from patent publication US20090104711A1, “FLUORESCENT MARKER COMPRISING DOUBLE BOND ESTER GROUP AND METHOD FOR MARKING AND DETECTING THE SAME” (priority 2005, published 2009).

For data set [1] the following is noted: Example 6 vs C18 saturated alkyl-chain ester (fluorescein distearate), in petroleum, FIG. 4.
Data set [2] in a line: Solubility in kerosene oil, unsaturated vs saturated esters. The note with it: for Solubility (%): in kerosene oil.

Consider fluorescein dioleate [Example 6], for which the comparison of solubility result in data set [1] is given as “significant difference in solubility”. In addition, in data set [2], the “Solubility (%)” value is “More than 14.7%”. Moreover, the “Rate of increase in solubility of unsaturated esters (%)” value in data set [2] (unsaturated ester vs corresponding saturated C18 stearate, kerosene oil) is “More than 150%”.

resorufin dioleate [Example 9]: the “Solubility (%)” value in data set [2] is given as “More than 14.7%”.
